## Binding of CDR-mutated scFvs to a peptide of the spike HR2 region

Source: Li et al. 2023 (doi:10.1038/s41467-023-39022-2), MIT Lincoln Laboratory and A-Alpha Bio; data file from the FLAb repository.

Antigen: PDVDLGDISGINAS, a 14-residue peptide of the SARS-CoV-2 spike HR2 region.

Ab-14 is the parent antibody, in scFv form: VH, then a 15-residue (Gly4Ser)3 linker, then VL. The heavy chain is unchanged in all variants.
VH: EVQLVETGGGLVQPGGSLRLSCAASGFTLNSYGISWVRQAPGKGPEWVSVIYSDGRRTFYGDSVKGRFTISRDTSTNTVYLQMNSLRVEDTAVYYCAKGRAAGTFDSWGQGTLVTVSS
VL: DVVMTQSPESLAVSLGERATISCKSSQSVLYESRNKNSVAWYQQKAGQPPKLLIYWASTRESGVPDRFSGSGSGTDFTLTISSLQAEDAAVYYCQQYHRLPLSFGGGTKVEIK

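Phage display of a naive human antibody library on the peptide gave the parent. Designed CDR sequences, proposed from the first random library and measured here. Several design methods are mixed in this list. In AlphaSeq, yeast of one mating type display the scFv and yeast of the other type display the target. The frequency of each diploid, read from paired DNA barcodes, reflects how well the two displayed proteins bind. The ratio of observed to expected reads was calibrated, replicate by replicate, on BCL2-family standards whose Kd was known from biolayer interferometry. Each pool was mated in six replicate cultures.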

The parent's light chain CDRs are KSSQSVLYESRNKNSVA, WASTRES, QQYHRLPLS; each variant's own CDRs replace them letter for letter. Numbers give log10(Kd / nM), so 0 is 1 nM and 3 is 1 µM. Smaller is tighter. The mean shown is taken over the replicates in which the pair was detected. A pair that was not seen in any replicate is written "nd"; this usually means weak binding, but a binder can also be missed. A sequence measured in both rounds can read differently, since the two assays cover different ranges. As a blank, each scFv also met three strains without target: over all light chain designs, 4% of these pairings were detected, typically at 2.64 and seldom below 1.59. The authors' rule: three or more of the six replicates give a measured affinity, fewer mean a poor binder.

CDR-L1,CDR-L2,CDR-L3,mean log10 Kd (nM),seen in
KIMQSLNYEQFNVSNVA,GQETRED,QSYHRLPLS,1.22,6/6
KRSSSVLPESRNKNSEA,AASTREK,QWYHRLPLS,nd,0/6
KSYQIVLYEDRNKNSVA,WASTRES,QQYHWLLLI,nd,0/6
KLSQMYEYESRWKNSVA,NASTREL,QQYHRLPLS,0.01,6/6
KISQSVLYESRNKNAVA,NASTRES,QQYHRLPLS,-0.42,6/6
KFSQSVLYESRNKNSVA,NASQRMS,QQYHRLPLS,0.43,6/6
KLSCSELYGSRNKNSVA,DASQRES,QQYHRLPLS,-0.30,6/6
HMSALTMLGSRNRNSVA,QMTTREN,QQYDRLPLA,0.69,6/6
KISMSYRYESQEKNNIA,EMSTREE,QSYHRLPLS,0.61,6/6
KLYYDAAEWVMDTENIA,EKTISYQ,QQYHRLPLS,1.61,5/6
KLSQSWLYESRNKNSVA,EASTREQ,QQYHRLPLS,-0.41,6/6
TISQSAQQESHNKNSVA,DLNMRGS,QQYDRLPLS,0.63,6/6
KSSQSVLMESRNKNSVA,NASTRES,QAYYRLPLS,nd,0/6
KDSQSVLYESTNKNSVA,WASTRES,QQYHRLPLS,3.20,5/6
KSSQSVLQESRNQNSVA,EASTREA,QQYHRLPLS,0.27,6/6
MVNGHTVHQANRDNNIA,EAQMVAA,QDYHRLPLI,1.17,6/6
KLLQAVLGESYNKNNVA,HNSTRED,QEYARLPLS,2.20,6/6
TIGQTLMIGTRNRSNVA,EVSQRLN,QQYDRLPLL,2.25,6/6
KIGVTLNTLMHQKNNVA,DLVTREN,QQYFRLPLS,0.50,6/6
KLSMLHDYESRNKNSVA,QASTREW,QQYHRLPLS,0.50,6/6
KSSISYLCESRNKNSVA,EASTRES,QQYHRLPLS,0.80,6/6
KISQSSLYESRNKNSVA,WASTREG,QQYHQQPLS,0.72,6/6
KMSQGVLYESRNKNNVA,GASTRES,QQYHRLPLS,0.06,6/6
KSSQSVLYEHRNKNSVA,WASTRES,QQYHRLPLS,2.31,3/6
KSSQSVLYESRNLNSVA,WASTRVS,QQYHRLPLS,1.38,6/6
KSSESVTWESRNKNSVA,WASTRES,QQYLRLPLS,2.19,2/6
KCAQWVDYESRNKNSVA,DASTREQ,QQYHRLPLS,1.05,6/6
MFSQGVMVGWLTRNSVA,NSETREK,QQYDRLPLI,2.54,6/6
KDSQSWLYESRNKNSVA,QASTRES,QQYQRLPLS,1.23,6/6
MISQLMNMGTFAINSVA,QAEIRNA,QQYDRLPLT,1.77,6/6
KLQQSRLYEERNSNSVA,SASLRES,QQYHRLPLS,-0.15,6/6
QLHAYTQGFKRADGNIA,DISYRVT,QQYGRLPLS,1.32,6/6
KVEQLHLYESRNKNAVA,NGSTRES,QQYHRLPLS,-0.18,6/6

Further variants, results first:

mean log10 Kd (nM),seen in,CDR-L1,CDR-L2,CDR-L3
0.78,6/6,KFAYGLDYNNAHKSAVA,HADIRNI,QQYFRLPLD
1.51,6/6,KSSQSVLVESRNKNSVA,WASTRES,QQYFRLPLS
-0.36,6/6,KFSQSYLYESRNKNSVA,NASYRES,QQYHRLPLS
1.98,6/6,KLDLNNGEMDKKGQNIA,EASTAGM,QSYWRLPLS
1.52,3/6,KSSQSVLYESRNKNSVA,WASARES,QQYYRLPLS
2.06,5/6,TIGATLMYGMRNRSNVA,EVSERLN,QQYDRLPLL
2.34,1/6,KISMMTTFESRNKNSVA,ENSTRES,QSYHRLPLS
-0.28,6/6,KLSQSWLYESRNSNNVA,NASTRES,QQYHRLPLS
0.03,6/6,KSEGGELYESRNKNSVA,GASMRES,QQYHRLPLS
1.52,6/6,KLSMVTNQEHKVKNSIA,EMVTREK,QQYDRLPLE
1.47,2/6,KSSQSVLYEQYNKNSVA,WASTRES,QQYHRLPLY
-0.03,6/6,KMVKWESSGDRHAANIA,DANKITD,QQYYRLPLA
1.83,6/6,KSSPSVLYESRNFNSVA,WASTRES,QQYHRLPLS
nd,0/6,IVSQLMIWGMKLKNSIA,EAETRLN,QQYERLPLF
1.73,4/6,IIDQIMFHGNKRANSIA,QASQRVN,QQYHHLPLT
1.05,6/6,MVYQAVMMGGVARNSIA,NAQTRDD,QQYHRLPLI
-0.11,6/6,HSSPSVLYDSRNKNSVA,NASTRES,QQYHRLPLS
0.71,6/6,KLYMNVGTMSHNKQSIA,DMERRED,QQYHRLPLS
nd,0/6,KWSQSVLYESRNKNSVA,RASTRIS,QQYHRTPLS
-0.05,6/6,KLSQSRLYESRNKNSVA,NASTRES,QQYHRLPLS
0.43,6/6,KYQQSVLTEDRNKNSVA,NASTRES,QDYHQLPLS
0.59,6/6,KALFSVLYESRDKNSVA,HASTRED,QQYHRLPLS
0.72,6/6,KSPTSLLYESRNKNSVA,WASTRDS,QQYHRLPLS
1.11,6/6,KLQQSELYESRNKNSVA,EASYRES,QQYHRLPLS
0.67,6/6,QVQYHPGESLRHTSSIA,DVNIKEM,QQYSRLPLS
1.54,6/6,KISQNMGETQRNKNSVA,EVSTVPW,QQYWRLPLS
1.27,6/6,KISQMQRVGSTHNNSIA,EEATRAK,QQYHRLPLF
0.96,6/6,RLYNQGTDQIQHANSIA,DRDEVDS,QQYAHLPLS
0.08,6/6,KLEQSWLYESRNKNSVA,NASTRED,QQYHRLPLS
0.64,6/6,KSSISDLYESENKNSVA,EASQRES,QQYHRLPLS
0.11,6/6,MFSQSVMTGSFYRNSVA,QTSTREK,QQYDRLPLS
nd,0/6,KSSQSVIYESRNKNSVA,WASTRES,QQYDRLPLS
0.36,6/6,QFHSTMAGDQRNVHSIA,NATAAVP,QQYFRLPLS

The last 7 entries again:

| CDR-L1 | CDR-L2 | CDR-L3 | mean log10 Kd (nM) | seen in |
|---|---|---|---|---|
| KISQMQRVGSTHNNSIA | EEATRAK | QQYHRLPLF | 1.27 | 6/6 |
| RLYNQGTDQIQHANSIA | DRDEVDS | QQYAHLPLS | 0.96 | 6/6 |
| KLEQSWLYESRNKNSVA | NASTRED | QQYHRLPLS | 0.08 | 6/6 |
| KSSISDLYESENKNSVA | EASQRES | QQYHRLPLS | 0.64 | 6/6 |
| MFSQSVMTGSFYRNSVA | QTSTREK | QQYDRLPLS | 0.11 | 6/6 |
| KSSQSVIYESRNKNSVA | WASTRES | QQYDRLPLS | nd | 0/6 |
| QFHSTMAGDQRNVHSIA | NATAAVP | QQYFRLPLS | 0.36 | 6/6 |